{
  "sequences": {"note": "The chains behind the UniProt entries cited, without tags or fusion partners. Where a name states a change or a piece, a line headed by the entry shows the natural chain unless it says otherwise.", "UniProt P06873": "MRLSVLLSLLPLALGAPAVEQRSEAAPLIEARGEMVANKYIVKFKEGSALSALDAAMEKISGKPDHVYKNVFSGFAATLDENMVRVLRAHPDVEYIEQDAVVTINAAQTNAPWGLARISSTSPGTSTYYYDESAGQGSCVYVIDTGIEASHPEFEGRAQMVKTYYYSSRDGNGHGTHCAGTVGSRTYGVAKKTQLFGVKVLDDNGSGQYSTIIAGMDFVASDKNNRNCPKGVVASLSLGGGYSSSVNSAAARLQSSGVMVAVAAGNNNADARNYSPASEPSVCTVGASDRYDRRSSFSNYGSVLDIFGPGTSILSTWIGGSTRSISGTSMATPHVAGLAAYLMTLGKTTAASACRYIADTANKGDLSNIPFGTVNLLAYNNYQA"},
  "source": "patent US20060258596A1",
  "about": "“Antimicrobial agents” (published 2006)",
  "key": {"[1]": {"assay": "Heat stability of the peptide"}, "proteinase K": {"molecular_target": "proteinase K (Parengyodontium album, UniProt P06873)", "assay": "Sensitivity to proteinase K"}},
  "data": [
    {"substance": "LCSYIDV", "values": [
      {"measurement": "heat stability", "setting": "[1]", "value": "heat liable"},
      {"measurement": "sensitivity to proteinase K", "setting": "proteinase K", "value": "sensitive to proteinase K"}
    ]}
  ]
}
